Results reported in PMC5749684, “Tetrahydrocarbazoles are a novel class of potent P-type ATPase inhibitors with antifungal activity” (PLoS ONE, 2018).

Chains of the proteins cited; added tags and fusions are not shown. Residues count along the entry.
UniProt P04191, 1-994 isoform 2: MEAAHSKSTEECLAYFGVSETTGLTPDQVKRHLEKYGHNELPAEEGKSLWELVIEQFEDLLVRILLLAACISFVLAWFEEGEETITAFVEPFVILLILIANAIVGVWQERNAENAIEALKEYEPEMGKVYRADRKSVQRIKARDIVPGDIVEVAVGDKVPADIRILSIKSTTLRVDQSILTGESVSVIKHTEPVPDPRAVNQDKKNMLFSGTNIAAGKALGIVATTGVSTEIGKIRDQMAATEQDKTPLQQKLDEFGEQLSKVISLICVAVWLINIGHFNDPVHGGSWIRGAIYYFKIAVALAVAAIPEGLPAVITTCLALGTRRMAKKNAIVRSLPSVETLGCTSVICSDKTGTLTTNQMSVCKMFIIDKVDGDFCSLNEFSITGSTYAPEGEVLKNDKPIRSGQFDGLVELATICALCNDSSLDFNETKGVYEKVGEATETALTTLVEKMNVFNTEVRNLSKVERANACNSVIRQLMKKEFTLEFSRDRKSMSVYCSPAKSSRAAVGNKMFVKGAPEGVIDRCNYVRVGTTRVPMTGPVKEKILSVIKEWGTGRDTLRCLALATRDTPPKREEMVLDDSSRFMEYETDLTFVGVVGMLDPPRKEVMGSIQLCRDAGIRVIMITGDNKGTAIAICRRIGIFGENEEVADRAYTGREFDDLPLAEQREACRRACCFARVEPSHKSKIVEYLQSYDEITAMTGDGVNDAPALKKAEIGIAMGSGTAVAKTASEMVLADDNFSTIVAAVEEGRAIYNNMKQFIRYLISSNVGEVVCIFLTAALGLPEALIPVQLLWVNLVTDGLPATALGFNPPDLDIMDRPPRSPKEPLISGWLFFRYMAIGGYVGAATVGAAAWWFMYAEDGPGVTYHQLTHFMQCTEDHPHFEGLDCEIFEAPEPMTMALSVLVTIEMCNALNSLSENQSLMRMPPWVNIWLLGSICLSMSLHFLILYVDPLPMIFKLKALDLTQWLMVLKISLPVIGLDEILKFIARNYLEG
UniProt P05030, whole entry: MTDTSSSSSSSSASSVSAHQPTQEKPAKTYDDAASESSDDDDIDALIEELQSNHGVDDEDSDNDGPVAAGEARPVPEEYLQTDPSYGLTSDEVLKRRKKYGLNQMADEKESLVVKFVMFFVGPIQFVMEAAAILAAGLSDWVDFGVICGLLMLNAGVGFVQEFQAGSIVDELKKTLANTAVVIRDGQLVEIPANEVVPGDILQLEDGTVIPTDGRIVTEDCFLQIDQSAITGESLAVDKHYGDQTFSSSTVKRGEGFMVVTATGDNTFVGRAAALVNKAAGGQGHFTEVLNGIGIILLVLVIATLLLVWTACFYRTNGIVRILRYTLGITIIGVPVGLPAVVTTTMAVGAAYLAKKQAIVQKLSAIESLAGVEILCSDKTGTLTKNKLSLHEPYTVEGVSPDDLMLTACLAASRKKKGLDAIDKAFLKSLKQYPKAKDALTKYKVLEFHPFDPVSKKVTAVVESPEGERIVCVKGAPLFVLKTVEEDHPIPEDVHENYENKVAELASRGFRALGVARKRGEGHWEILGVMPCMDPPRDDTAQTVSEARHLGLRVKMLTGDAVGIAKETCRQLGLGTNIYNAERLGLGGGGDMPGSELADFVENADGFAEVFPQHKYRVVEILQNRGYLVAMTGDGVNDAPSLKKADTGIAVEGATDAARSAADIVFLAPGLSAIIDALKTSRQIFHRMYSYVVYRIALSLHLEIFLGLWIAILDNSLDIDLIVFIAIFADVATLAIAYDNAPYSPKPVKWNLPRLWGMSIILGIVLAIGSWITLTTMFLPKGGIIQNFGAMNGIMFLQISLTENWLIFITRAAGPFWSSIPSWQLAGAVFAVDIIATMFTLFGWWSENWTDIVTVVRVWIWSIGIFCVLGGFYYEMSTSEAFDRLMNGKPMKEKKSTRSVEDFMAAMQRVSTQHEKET

Columns and labels:
Mammalian SERCA = Mammalian SERCA (Oryctolagus cuniculus, UniProt P04191); assay: ATP hydrolysis inhibition, SERCA; settings: read-out: ATP hydrolysis IC50 SERCA (Table B); Table B in S1 File, rabbit SERCA
Source text: (§1) All membrane batches were validated by determining ATPase activity, pH optimum and orthovanadate sensitivity. Sarco/endoplasmatic reticulum (SR) Ca^2+ ATPase was provided in SR membranes purified by extraction with a low concentration of deoxycholate (DOC) and was kindly provided by Claus E. Olesen and Jesper V. Møller, Aarhus University and prepared as described in [43]. The pig kidney Na^+,K^+-ATPase purification included a mild SDS treatment of isolated microsomes followed by a washing step and was kindly provided by Natalya Fedosova, Aarhus University and prepared as described in [44].
(§2) ATPase activity was determined by measuring the amount of liberated phosphate from ATP hydrolysis. The ATPase assay was performed in 96 well plates in a final reaction volume of 60 μL. […] The amount of liberated phosphate was determined colorimetrically after addition of STOP solution (mixture of L-ascorbic acid, ammonium heptamolybdate tetrahydrate, and HCl to give final concentrations of 65 mM, 2.2 mM, and 189 mM, respectively) with 5 minutes incubation at room temperature (RT) followed by addition of arsenite solution (mixture of NaAsO2, sodium citrate dihydrate, and acetic acid to give final concentrations of 3.1 mM, 28 mM, and 141 mM, respectively). Absorption was measured at 860 nm after additional 30 minutes incubation at RT.

[1] = molecular target: Mammalian Na^+,K^+-ATPase (Sus scrofa, UniProt P05024); assay: ATP hydrolysis inhibition, Na+,K+-ATPase; settings: Table B in S1 File, pig Na+,K+-ATPase
Source text: as §1, §2

[2] = molecular target: Saccharomyces cerevisiae Pma1 (Saccharomyces cerevisiae, UniProt P05030); assay: ATP hydrolysis inhibition, S. cerevisiae Pma1; assay type: biochemical; settings: Table A in S1 File; for IC50: read-out: ATP hydrolysis IC50 S.cerevisiae Pma1 (Table A)
Experimental: The compound libraries were purchased from Enamine Ltd, Ukraine and Chembridge Corp, USA. Library screening was performed in 96 well plates format and each compound was screened in the ATP hydrolysis assay at a final concentration of 20 μM. DMSO was used to determine the maximal ATPase activity and a blank with ATP in absence of Pma1 protein was used to determine the level of spontaneous ATP hydrolysis and used to determine background level. The percentage of compound inhibition was evaluated by subtracting the blank from each data point and normalizing to maximal ATP hydrolysis activity. […] Two-fold dilution plates of the compounds were used to determine Pma1 IC50 and evaluated for fungal growth inhibition against Saccharomyces cerevisiae (baker’s yeast) and Candida albicans (ATCC 90028) in a concentration range of 100 μM to 1.5 μM. Pma1 inhibitory hit compounds (IC50 <20 μM) with antifungal activity on both S. cerevisiae and C. albicans (MIC <100 μM) were re-purchased and re-evaluated to confirm the potency and identity of the compound.
Plasma membranes containing Pma1 were isolated from Saccharomyces cerevisiae RS72 cells containing the full-length cDNA of the S. cerevisiae plasma membrane H^+-ATPase isoform PMA1 under control of the PMA1 promoter as described.
ATPase activity was determined by measuring the amount of liberated phosphate from ATP hydrolysis. The ATPase assay was performed in 96 well plates in a final reaction volume of 60 μL. 0.1–0.2 μg/well of DOC extracted SERCA membrane or the Na^+,K^+-ATPase was used, while 1–2.5 μg/well was used of the Pma1 membrane preparation. Reactions, including protein membrane preparation and various concentrations of exogenously added compounds, were conducted in the following buffers; Pma1 buffer: 17.5 mM MOPS-NaOH pH 7, 7 mM MgSO4, 44 mM KNO3 (vacuolar ATPase inhibitor), 22 mM NaN3 (mitochondrial ATPase inhibitor), 0.22 mM Na2MoO4 (acid phosphatase inhibitor); SERCA buffer: 9 mM MOPS-NaOH pH 7, 2.7 mM MgCl2, 0.1 mM CaCl2 and 72 mM KCl. Na^+,K^+-ATPase buffer: 30 mM MOPS-NaOH pH 7, 40 mM NaCl, 4 mM MgCl2 and 20 mM KCl. […] The amount of liberated phosphate was determined colorimetrically after addition of STOP solution (mixture of L-ascorbic acid, ammonium heptamolybdate tetrahydrate, and HCl to give final concentrations of 65 mM, 2.2 mM, and 189 mM, respectively) with 5 minutes incubation at room temperature (RT) followed by addition of arsenite solution (mixture of NaAsO2, sodium citrate dihydrate, and acetic acid to give final concentrations of 3.1 mM, 28 mM, and 141 mM, respectively). Absorption was measured at 860 nm after additional 30 minutes incubation at RT.

Row | Compound | IC50 (Mammalian SERCA) | ATP hydrolysis IC50 Na+,K+-ATPase (Table B) [1] | IC50 ([1]; read-out: ATP hydrolysis IC50 Na+,K+-ATPase (Table B)) | ATP hydrolysis IC50 S.cerevisiae Pma1 (Table A) [2] | IC50 [2]
1 | CC1Cc2c([nH]c3cc(Cl)c(F)cc23)C2(N1)C(=O)Nc1ccc(Cl)cc12 (stereo not shown) | 1.07 µM | less potent | 46.7 µM | – | –
2 | O=C(NC1CCCc2c1[nH]c1ccc(Br)cc21)c1ccccc1F (stereo not shown) | – | – | – | Neither of them inhibited Pma1 | > 183 µM
3 | O=C(NC1CCCc2c1[nH]c1ccc(Br)cc21)c1ccccn1 (stereo not shown) | – | – | – | Neither of them inhibited Pma1 | > 183 µM
